Molecular target: GFPNb^R35Q-USP7 (Homo sapiens, UniProt Q93009)
Details: for potency: 7-point dose response, USP7 cell line

The chains behind the UniProt entries cited, without tags or fusion partners. Where a name states a change or a piece, a line headed by the entry shows the natural chain unless it says otherwise. A line that says so, or that is headed by a name, gives the form on record, which may keep a tag or linker.
UniProt Q93009, with tags, fused parts or gaps limits assumed, stated change not applied: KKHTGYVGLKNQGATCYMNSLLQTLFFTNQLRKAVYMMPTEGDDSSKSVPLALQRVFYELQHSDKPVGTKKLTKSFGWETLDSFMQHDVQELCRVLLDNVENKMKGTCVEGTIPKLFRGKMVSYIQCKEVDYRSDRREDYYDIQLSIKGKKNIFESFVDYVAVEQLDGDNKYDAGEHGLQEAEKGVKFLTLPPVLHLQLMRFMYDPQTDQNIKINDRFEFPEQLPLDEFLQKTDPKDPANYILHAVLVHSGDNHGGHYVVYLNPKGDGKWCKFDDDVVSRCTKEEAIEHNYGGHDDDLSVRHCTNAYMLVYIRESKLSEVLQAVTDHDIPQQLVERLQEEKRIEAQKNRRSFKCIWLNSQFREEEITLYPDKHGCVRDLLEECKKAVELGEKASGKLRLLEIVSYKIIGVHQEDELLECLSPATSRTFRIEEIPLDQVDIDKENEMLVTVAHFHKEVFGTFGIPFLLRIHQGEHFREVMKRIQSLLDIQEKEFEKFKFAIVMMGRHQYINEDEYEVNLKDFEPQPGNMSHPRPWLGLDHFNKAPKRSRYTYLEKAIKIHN

| SMILES | potency | IC50 (read-out: cellular IC50, 7-point 4-fold dose response, 24 h of treatment, 293T-UbR-C3 +GFPNbR35Q-USP7, Figure 5D) [µM] |
| --- | --- | --- |
| CCc1c(-c2ccc3[nH]ncc3c2)cnc(N)c1-c1ccc(O)cc1 | low micromolar range |  |
| CCc1c(-c2ccc(C(=O)NC)nc2)cnc(N)c1-c1ccc(O)cc1 | low micromolar range | 3.02 |
